The record followed here is patent US20090042865A1, “DNA-PK INHIBITORS” (priority 2007, published 2009).

Sequences of proteins named here, by UniProt entry; tags and fusion partners are left off.
UniProt P78527, whole entry: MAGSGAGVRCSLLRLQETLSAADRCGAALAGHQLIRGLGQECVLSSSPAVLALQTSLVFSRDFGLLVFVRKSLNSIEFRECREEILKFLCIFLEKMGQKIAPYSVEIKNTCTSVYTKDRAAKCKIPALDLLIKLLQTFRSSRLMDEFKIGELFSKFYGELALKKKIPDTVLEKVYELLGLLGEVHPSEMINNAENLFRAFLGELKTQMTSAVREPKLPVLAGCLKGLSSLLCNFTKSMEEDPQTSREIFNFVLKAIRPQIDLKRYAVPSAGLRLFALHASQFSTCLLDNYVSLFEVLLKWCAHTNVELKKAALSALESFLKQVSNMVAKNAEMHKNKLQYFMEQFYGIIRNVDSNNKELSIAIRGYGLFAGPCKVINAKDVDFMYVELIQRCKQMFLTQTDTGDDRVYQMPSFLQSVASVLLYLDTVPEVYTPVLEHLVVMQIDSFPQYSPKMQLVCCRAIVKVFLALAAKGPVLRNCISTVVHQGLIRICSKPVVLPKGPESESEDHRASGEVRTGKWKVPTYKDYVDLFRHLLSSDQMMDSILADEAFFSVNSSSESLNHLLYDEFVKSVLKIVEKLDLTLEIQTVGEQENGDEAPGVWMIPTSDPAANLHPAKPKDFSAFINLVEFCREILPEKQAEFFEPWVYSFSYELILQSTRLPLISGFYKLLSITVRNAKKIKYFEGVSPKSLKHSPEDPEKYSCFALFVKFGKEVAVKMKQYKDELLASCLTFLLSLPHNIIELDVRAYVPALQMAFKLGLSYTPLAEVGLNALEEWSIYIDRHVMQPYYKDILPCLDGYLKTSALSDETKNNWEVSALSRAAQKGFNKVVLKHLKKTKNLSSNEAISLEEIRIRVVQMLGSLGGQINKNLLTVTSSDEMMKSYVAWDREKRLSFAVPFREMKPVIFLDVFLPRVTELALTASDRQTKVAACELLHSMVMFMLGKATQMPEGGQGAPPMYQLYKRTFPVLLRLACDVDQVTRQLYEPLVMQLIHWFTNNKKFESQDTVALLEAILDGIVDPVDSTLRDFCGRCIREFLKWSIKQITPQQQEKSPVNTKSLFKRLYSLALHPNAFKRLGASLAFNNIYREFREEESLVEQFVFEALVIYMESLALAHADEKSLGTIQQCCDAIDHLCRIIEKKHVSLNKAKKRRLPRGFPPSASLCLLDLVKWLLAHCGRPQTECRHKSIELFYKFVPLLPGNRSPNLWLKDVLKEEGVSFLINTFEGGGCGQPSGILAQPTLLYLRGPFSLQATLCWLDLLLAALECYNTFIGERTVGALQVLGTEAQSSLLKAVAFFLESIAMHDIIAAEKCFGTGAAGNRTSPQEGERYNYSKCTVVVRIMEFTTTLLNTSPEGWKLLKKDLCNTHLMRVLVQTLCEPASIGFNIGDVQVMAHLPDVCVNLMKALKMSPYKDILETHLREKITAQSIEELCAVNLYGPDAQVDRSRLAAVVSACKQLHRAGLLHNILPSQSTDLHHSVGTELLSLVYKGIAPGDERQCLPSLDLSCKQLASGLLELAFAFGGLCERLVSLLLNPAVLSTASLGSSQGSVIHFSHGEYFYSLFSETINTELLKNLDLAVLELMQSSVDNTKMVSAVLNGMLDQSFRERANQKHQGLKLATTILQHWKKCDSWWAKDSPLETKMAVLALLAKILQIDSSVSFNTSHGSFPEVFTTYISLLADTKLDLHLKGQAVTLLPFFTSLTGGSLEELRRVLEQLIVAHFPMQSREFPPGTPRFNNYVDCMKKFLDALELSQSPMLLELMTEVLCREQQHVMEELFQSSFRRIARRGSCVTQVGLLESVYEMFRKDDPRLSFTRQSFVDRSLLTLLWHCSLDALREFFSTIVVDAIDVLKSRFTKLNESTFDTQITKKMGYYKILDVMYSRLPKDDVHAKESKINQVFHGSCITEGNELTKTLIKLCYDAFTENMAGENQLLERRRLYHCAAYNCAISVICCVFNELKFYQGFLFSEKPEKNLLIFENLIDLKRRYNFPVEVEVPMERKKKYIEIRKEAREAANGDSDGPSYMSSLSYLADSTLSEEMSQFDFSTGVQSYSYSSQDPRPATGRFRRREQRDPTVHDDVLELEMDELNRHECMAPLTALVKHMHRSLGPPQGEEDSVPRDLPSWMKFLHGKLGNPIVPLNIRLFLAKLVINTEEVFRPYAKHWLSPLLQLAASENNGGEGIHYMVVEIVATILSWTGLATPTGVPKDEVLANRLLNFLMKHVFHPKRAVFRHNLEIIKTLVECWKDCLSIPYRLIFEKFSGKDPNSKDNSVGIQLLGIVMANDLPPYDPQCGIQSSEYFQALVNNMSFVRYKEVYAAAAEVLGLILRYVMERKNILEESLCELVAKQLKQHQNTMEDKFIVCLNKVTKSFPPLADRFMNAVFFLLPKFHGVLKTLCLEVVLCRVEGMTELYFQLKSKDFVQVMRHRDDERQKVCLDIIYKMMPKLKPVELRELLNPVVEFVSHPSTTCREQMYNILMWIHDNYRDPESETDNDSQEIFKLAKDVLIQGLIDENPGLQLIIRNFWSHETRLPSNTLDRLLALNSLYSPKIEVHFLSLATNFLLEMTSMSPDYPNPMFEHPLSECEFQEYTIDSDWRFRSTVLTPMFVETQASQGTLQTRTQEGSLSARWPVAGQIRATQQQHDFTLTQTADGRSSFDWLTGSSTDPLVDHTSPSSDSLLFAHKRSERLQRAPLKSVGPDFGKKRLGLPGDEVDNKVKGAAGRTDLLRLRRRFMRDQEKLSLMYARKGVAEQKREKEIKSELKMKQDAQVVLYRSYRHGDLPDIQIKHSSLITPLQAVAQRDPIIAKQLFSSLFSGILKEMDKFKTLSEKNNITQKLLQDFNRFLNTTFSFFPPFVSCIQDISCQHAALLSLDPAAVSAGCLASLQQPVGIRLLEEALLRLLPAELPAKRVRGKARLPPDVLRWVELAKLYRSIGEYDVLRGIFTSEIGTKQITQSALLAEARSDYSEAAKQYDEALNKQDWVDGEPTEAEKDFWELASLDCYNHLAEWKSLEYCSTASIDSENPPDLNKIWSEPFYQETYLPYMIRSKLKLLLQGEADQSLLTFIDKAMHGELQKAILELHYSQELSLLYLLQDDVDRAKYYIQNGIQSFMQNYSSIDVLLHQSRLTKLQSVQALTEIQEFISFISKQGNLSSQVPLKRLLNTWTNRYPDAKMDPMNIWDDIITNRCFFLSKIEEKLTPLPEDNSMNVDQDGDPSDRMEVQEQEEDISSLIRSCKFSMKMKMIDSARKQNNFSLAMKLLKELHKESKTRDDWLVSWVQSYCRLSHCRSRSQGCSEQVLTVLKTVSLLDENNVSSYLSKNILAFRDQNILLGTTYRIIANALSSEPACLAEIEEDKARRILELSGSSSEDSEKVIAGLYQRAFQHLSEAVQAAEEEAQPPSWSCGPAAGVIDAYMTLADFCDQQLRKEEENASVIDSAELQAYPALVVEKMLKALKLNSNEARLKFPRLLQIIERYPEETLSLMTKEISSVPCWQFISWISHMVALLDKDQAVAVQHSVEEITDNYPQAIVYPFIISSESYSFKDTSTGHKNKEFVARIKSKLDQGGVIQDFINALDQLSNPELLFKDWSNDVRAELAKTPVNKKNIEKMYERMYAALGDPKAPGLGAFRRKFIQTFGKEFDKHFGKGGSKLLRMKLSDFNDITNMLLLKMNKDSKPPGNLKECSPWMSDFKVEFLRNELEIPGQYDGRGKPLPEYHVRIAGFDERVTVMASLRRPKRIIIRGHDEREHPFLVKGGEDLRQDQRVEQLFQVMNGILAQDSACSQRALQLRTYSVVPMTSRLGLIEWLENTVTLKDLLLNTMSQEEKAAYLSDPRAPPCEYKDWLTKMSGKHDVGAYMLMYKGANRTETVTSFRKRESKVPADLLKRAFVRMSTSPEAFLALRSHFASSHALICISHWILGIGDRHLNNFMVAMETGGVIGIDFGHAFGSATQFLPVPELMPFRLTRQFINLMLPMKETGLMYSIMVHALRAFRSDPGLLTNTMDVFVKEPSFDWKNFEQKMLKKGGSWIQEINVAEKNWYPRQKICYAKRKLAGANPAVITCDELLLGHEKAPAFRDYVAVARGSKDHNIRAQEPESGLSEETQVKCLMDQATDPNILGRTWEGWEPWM
UniProt P12956, whole entry partner: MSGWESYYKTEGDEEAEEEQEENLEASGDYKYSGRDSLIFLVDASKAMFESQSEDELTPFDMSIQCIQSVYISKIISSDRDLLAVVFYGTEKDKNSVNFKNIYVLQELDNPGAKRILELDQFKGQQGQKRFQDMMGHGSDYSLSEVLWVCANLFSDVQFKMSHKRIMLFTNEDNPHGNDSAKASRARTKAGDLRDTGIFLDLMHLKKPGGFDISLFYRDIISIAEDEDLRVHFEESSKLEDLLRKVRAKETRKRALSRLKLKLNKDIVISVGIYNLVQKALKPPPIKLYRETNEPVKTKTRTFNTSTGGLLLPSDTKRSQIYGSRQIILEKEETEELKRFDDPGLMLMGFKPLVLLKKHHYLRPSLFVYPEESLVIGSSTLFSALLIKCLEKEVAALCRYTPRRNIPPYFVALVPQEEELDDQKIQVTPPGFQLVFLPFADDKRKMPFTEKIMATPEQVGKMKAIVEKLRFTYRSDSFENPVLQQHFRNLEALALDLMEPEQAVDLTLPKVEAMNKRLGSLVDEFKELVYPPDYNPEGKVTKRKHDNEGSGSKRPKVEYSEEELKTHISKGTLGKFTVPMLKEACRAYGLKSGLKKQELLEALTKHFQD
UniProt P13010, whole entry partner: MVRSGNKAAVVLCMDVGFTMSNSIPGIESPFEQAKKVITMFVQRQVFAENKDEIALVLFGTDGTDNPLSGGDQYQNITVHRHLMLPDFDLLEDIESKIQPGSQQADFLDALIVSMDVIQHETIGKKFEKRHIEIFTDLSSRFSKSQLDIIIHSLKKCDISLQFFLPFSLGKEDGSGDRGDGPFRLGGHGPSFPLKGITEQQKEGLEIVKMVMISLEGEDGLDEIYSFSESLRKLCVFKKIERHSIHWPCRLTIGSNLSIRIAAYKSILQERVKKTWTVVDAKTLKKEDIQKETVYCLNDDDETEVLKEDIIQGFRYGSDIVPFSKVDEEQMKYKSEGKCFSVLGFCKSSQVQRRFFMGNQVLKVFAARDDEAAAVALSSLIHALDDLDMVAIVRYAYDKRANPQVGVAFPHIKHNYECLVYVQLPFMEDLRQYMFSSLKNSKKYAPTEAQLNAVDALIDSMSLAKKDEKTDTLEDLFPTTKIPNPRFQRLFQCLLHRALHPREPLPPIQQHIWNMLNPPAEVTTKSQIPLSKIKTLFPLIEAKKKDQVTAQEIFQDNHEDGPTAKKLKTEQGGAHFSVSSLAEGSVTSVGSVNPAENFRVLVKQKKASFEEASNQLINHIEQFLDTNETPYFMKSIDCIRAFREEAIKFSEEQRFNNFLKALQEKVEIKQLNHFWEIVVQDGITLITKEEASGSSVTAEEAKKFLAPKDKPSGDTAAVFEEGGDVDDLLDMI

The test deals with DNA-PK (Homo sapiens, UniProt P78527). Put plainly: DNA-PK inhibition assay (ELISA, phosphorylation of GST-p53N66). The conditions noted are these: read-out: IC50 (mean IC50 of the compounds), DNA-PK from HeLa nuclear extract, 50 μM ATP. Background: ELISA stands for enzyme-linked immunosorbent assay.

The IC50 is the midpoint of a concentration-inhibition curve.

As to `N#CCN1CCN(c2ccc(-c3cccc4c(=O)cc(N5CCOCC5)oc34)c3sc4ccccc4c23)CC1`, the IC50 turned out to be 20 nM. The figure for `CC(C)(C)C(=O)ONCCN1CCN(c2ccc(-c3cccc4c(=O)cc(N5CCOCC5)oc34)c3sc4ccccc4c23)CC1` is 11 nM.
